Among the data in ChEMBL document CHEMBL1138385, “Synthesis and activity of a potent, specific azabicyclo[3.3.0]-octane-based DPP II inhibitor” (Bioorg Med Chem Lett, 2007) are Activity values, retold here.

This assay is described as follows: Inhibition of DPP2 expressed in HEK 293T cells assessed as remaining Ala-Pro-AFC substrate cleavage activity at 44 uM.

For the compound `NCC[C@H](N)C(=O)N1CC[C@H]2CCC[C@H]21`, the Activity came to 96.1%.
